# Patent US10933053B2, “Treating infections with ceftolozane/tazobactam in subjects having impaired renal function” (MERCK SHARP & DOHME CORP., priority 2013, dated 2021)
# Tested on: baseline uropathogens (complicated urinary tract infections)
# Experiment: Phase 3 study of complicated urinary tract infections incl. pyelonephritis: composite cure / microbiological eradication at test-of-cure
# Type: in vivo, human
# Conditions: ME population
# From the text: The primary efficacy endpoint was the composite microbiological and clinical cure response at the test-of-cure (TOC) visit in the microbiologically modified intent-to-treat (mMITT) population, which included all patients who received study medication and had at least 1 baseline uropathogen. The key secondary efficacy endpoint was the composite microbiological and clinical cure response at the TOC visit in the microbiologically evaluable (ME) population, which included protocol-adherent mMITT patients with a urine culture at the TOC visit.
structure (smiles),measurement,setting,value
"C[C@H]1COc2c(N3CCN(C)CC3)c(F)cc3c(=O)c(C(=O)O)cn1c23 [Levofloxacin, levofloxacin]",Per pathogen microbiological eradication rate,Escherichia coli (CTX-M-14/15 ESBL producing),(52.0) %
same,Per pathogen microbiological eradication rate,Escherichia coli (ESBL-producing),(50) %
same,Per pathogen microbiological eradication rate,Klebsiella pneumoniae (CTX-M-15 ESBL producing),(25.0) %
same,Per pathogen microbiological eradication rate,Klebsiella pneumoniae (ESBL-producing),(29) %
